# Values of other authors in patent US9913806B2, “Patches and methods for the transdermal delivery of a therapeutically effective amount of iron” (FE3 MEDICAL, INC., priority 2008, dated 2018).
# Details: injection of iron dextran administered over a few hours
substance,measurement,value
iron dextran,patients who developed allergic type side effects,10-15%
